Laboratory results published in ChEMBL document CHEMBL6121062, “Discovery, Optimization, and Preclinical Pharmacology of EP652, a METTL3 Inhibitor with Efficacy in Liquid and Solid Tumor Models” (J Med Chem, 2025).

Chains of the proteins cited; added tags and fusions are not shown.
UniProt Q86U44, whole entry: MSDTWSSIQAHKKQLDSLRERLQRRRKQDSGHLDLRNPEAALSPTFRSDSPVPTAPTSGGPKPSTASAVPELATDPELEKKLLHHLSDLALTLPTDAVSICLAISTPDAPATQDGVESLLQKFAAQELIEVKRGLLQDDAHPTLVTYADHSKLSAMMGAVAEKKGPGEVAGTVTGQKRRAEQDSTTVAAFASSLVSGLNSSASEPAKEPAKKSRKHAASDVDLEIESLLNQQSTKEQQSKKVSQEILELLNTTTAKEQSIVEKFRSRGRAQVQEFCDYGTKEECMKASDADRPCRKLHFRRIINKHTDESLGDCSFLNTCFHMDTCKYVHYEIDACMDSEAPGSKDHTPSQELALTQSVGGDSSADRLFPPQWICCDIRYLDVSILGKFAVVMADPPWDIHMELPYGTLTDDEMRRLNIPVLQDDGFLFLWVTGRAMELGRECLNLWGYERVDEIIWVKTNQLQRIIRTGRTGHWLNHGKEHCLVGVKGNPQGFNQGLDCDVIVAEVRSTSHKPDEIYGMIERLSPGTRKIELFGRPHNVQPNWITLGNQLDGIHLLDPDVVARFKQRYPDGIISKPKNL

What was measured:
[1] = Selectivity ratio of inhibition of MLL1 complex (unknown origin) to inhibition of METTL3/14 (unknown origin)
[2] = Selectivity ratio of inhibition of G9a (unknown origin) to inhibition of METTL3/14 (unknown origin)
[3] = Selectivity ratio of inhibition of SET1b complex (unknown origin) to inhibition of METTL3/14 (unknown origin)
[4] = target: N6-adenosine-methyltransferase catalytic subunit (Homo sapiens) (UniProt Q86U44); assay: Inhibition of METTL3 in human FaDu cells assessed as fold change in Bcl-2 expression incubated for 72 hrs by Western blot analysis relative to control; assay type: cell-based
[5] = Selectivity ratio of inhibition of PRMT4 (unknown origin) to inhibition of METTL3/14 (unknown origin)
[6] = Selectivity ratio of inhibition of PRDM9 (unknown origin) to inhibition of METTL3/14 (unknown origin)
[7] = Selectivity ratio of inhibition of PRMT8 (unknown origin) to inhibition of METTL3/14 (unknown origin)
[8] = Selectivity ratio of inhibition of METTL1 (unknown origin) to inhibition of METTL3/14 (unknown origin)
[9] = target: N6-adenosine-methyltransferase catalytic subunit (Homo sapiens) (UniProt Q86U44); assay: Inhibition of METTL3 in human A549 cells assessed as fold change in Bax expression incubated for 72 hrs by Western blot analysis relative to control; assay type: cell-based
[10] = Selectivity ratio of inhibition of SET8 (unknown origin) to inhibition of METTL3/14 (unknown origin)
[11] = Selectivity ratio of inhibition of DNMT3a (unknown origin) to inhibition of METTL3/14 (unknown origin)
[12] = Selectivity ratio of inhibition of PRMT6 (unknown origin) to inhibition of METTL3/14 (unknown origin)
[13] = Selectivity ratio of inhibition of NSD2 T1150A mutant (unknown origin) to inhibition of METTL3/14 (unknown origin)
[14] = Selectivity ratio of inhibition of MLL2 complex (unknown origin) to inhibition of METTL3/14 (unknown origin)
[15] = target: N6-adenosine-methyltransferase catalytic subunit (Homo sapiens) (UniProt Q86U44); assay: Inhibition of METTL3 in human SK-OV-3 cells assessed as fold change in Bcl-2 expression incubated for 72 hrs by Western blot analysis relative to control; assay type: cell-based
[16] = Selectivity ratio of inhibition of PRMT3 (unknown origin) to inhibition of METTL3/14 (unknown origin)
[17] = target: N6-adenosine-methyltransferase catalytic subunit (Homo sapiens) (UniProt Q86U44); assay: Inhibition of METTL3 in human FaDu cells assessed as fold change in Bax expression incubated for 72 hrs by Western blot analysis relative to control; assay type: cell-based
[18] = Selectivity ratio of inhibition of PRMT7 (unknown origin) to inhibition of METTL3/14 (unknown origin)
[19] = Selectivity ratio of inhibition of SUV420H1TV2 (unknown origin) to inhibition of METTL3/14 (unknown origin)
[20] = Selectivity ratio of inhibition of MLL3 complex (unknown origin) to inhibition of METTL3/14 (unknown origin)
[21] = Selectivity ratio of inhibition of DOT1L (unknown origin) to inhibition of METTL3/14 (unknown origin)
[22] = target: N6-adenosine-methyltransferase catalytic subunit (Homo sapiens) (UniProt Q86U44); assay: Inhibition of METTL3 in human SK-OV-3 cells assessed as fold change in Bax expression incubated for 72 hrs by Western blot analysis relative to control; assay type: cell-based
[23] = Selectivity ratio of inhibition of NSD3 (unknown origin) to inhibition of METTL3/14 (unknown origin)
[24] = Selectivity ratio of inhibition of PRMT1 (unknown origin) to inhibition of METTL3/14 (unknown origin)
[25] = Selectivity ratio of inhibition of GLP (unknown origin) to inhibition of METTL3/14 (unknown origin)
[26] = target: N6-adenosine-methyltransferase catalytic subunit (Homo sapiens) (UniProt Q86U44); assay: Inhibition of METTL3 in human A549 cells assessed as fold change in Bcl-2 expression incubated for 72 hrs by Western blot analysis relative to control; assay type: cell-based
[27] = Selectivity ratio of inhibition of DNMT1 (unknown origin) to inhibition of METTL3/14 (unknown origin)
[28] = Selectivity ratio of inhibition of DNMT3b (unknown origin) to inhibition of METTL3/14 (unknown origin)
[29] = Selectivity ratio of inhibition of NSD1 (unknown origin) to inhibition of METTL3/14 (unknown origin)
[30] = Selectivity ratio of inhibition of EZH2 complex (unknown origin) to inhibition of METTL3/14 (unknown origin)
[31] = Selectivity ratio of inhibition of SUV39H2 (unknown origin) to inhibition of METTL3/14 (unknown origin)
[32] = Selectivity ratio of inhibition of NSD2 E1099K mutant (unknown origin) to inhibition of METTL3/14 (unknown origin)
[33] = Selectivity ratio of inhibition of FTO (unknown origin) to inhibition of METTL3/14 (unknown origin)
[34] = Selectivity ratio of inhibition of EZH1 complex (unknown origin) to inhibition of METTL3/14 (unknown origin)
[35] = Selectivity ratio of inhibition of SET7/9 (unknown origin) to inhibition of METTL3/14 (unknown origin)
[36] = Selectivity ratio of inhibition of SMYD3 (unknown origin) to inhibition of METTL3/14 (unknown origin)
[37] = Selectivity ratio of inhibition of SUV39H1 (unknown origin) to inhibition of METTL3/14 (unknown origin)
[38] = Selectivity ratio of inhibition of SMYD2 (unknown origin) to inhibition of METTL3/14 (unknown origin)
[39] = Selectivity ratio of inhibition of ASHIL (unknown origin) to inhibition of METTL3/14 (unknown origin)
[40] = Selectivity ratio of inhibition of DNMT3b/3L (unknown origin) to inhibition of METTL3/14 (unknown origin)
[41] = Selectivity ratio of inhibition of NSD2 (unknown origin) to inhibition of METTL3/14 (unknown origin)
[42] = Selectivity ratio of inhibition of PRMT5/MEP50 complex (unknown origin) to inhibition of METTL3/14 (unknown origin)
[43] = Selectivity ratio of inhibition of EZH2 Y641F mutant complex (unknown origin) to inhibition of METTL3/14 (unknown origin)
[44] = Selectivity ratio of inhibition of PRMT5 C449S mutant/MEP50 complex (unknown origin) to inhibition of METTL3/14 (unknown origin)
[45] = Selectivity ratio of inhibition of SETDB1 (unknown origin) to inhibition of METTL3/14 (unknown origin)
[46] = Selectivity ratio of inhibition of SETD2 (unknown origin) to inhibition of METTL3/14 (unknown origin)

C[C@@H](n1cc(-c2cncc(N(C)C)c2)nn1)n1ccc(N2CCC[C@@H](NCC3CC3)C2)cc1=O
0.3: fold change (FC) [26]
> 500: Ratio [1] | Ratio [2] | Ratio [3] | Ratio [5] | Ratio [6] | Ratio [7] | Ratio [8] | Ratio [10] | Ratio [11] | Ratio [12] | Ratio [13] | Ratio [14] | Ratio [16] | Ratio [18] | Ratio [19] | Ratio [20] | Ratio [21] | Ratio [23] | Ratio [24] | Ratio [25] | Ratio [27] | Ratio [28] | Ratio [29] | Ratio [30] | Ratio [31] | Ratio [32] | Ratio [33] | Ratio [34] | Ratio [35] | Ratio [36] | Ratio [37] | Ratio [38] | Ratio [39] | Ratio [40] | Ratio [41] | Ratio [42] | Ratio [43] | Ratio [44] | Ratio [45] | Ratio [46]
0.6: fold change (FC) [4]
1.6: fold change (FC) [9] | fold change (FC) [22]
1.9: fold change (FC) [17]
0.9: fold change (FC) [15]
